From ChEMBL document CHEMBL2057123, “Design and synthesis of novel lactate dehydrogenase A inhibitors by fragment-based lead generation” (J Med Chem, 2012) come the findings set out here.

SMILES strings stand for the structures. Active and inactive are the calls of the source. No cut-off for these calls is given here.

The target in test [1] is T1, L-lactate dehydrogenase A chain (Homo sapiens, UniProt P00338). Kind of test: Binding affinity to 6-His-tagged human LDHA (2 to 322 amino acid residue) expressed in Escherichia coli BL21 (DE3) cells by NMR analysis in presence of NAD+. The essentials:
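Ligand-observed NMR at 298 K, 600 MHz, in 100 mM HEPES pH 7.5, 2 mM TCEP, 0.02% sodium azide, with 1 mM NAD⁺ present. Binding was detected by WaterLOGSY and T₁ρ-filtered 1D spectra (LDHA 40−48 μM monomer). […] Single experiment.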

Test [2] deals with T1, L-lactate dehydrogenase A chain. Kind of test: Binding affinity to 6-His-tagged human LDHA (2 to 322 amino acid residue) expressed in Escherichia coli BL21 (DE3) cells by SPR analysis. (SPR reads the build-up and loss of mass on a sensor chip optically.)

On to `O=C(O)c1nsnc1O`, for which the result in test [1] was Active.

`Cc1nc2ccc(NC(=O)CCNC(=O)CCCc3ccc(CC(C(=O)O)C(=O)O)cc3)cc2s1`: the Kd (as a rule, a measure of binding affinity in units of concentration) in test [2] turned out to be 93 nM.
